Reference: PubChem BioAssay AID504634 (The Scripps Research Institute Molecular Screening Center, 2011)
This is a selection; strong and weak results do not stand in their true shares. Activity calls are given as the source filed them. No stated cut-off is given here; in the data, active means inhibition mostly above about 23% (no sharp cut-off); inactive means mostly below about 18%.

Chains of the proteins cited; added tags and fusions are not shown.
UniProt P47898, whole entry, looked up: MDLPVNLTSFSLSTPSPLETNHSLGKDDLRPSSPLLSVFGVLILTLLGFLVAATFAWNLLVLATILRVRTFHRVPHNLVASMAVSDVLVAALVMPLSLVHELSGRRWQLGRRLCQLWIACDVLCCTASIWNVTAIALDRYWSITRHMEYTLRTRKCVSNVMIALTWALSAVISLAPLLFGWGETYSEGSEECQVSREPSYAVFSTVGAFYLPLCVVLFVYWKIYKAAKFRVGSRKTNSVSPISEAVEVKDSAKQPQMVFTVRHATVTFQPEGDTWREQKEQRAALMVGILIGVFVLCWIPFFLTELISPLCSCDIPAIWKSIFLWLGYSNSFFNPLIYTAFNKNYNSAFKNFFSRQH

Target: 5-hydroxytryptamine receptor 5A (Homo sapiens) (UniProt P47898)
Experiment: HTR5A inverse agonists in luminescence cell assay, primary screen, counter-screen for OPRM1-OPRD1 heterodimer inverse agonist project, full-deck HTS (AID 504634);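 further: 0% = cells with DMSO and 100% = no-cell wells with DMSO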
Conditions: HTR5A cell line, inverse agonism, at 9.3 µM, active compounds read high

| SMILES | inhibition |
| --- | --- |
| O=P1(N(CCCl)CCCl)OCCC2CCCCN21 (configuration not stated) | inactive: 8.39% |
| O=C(c1ccc(Cl)cc1)N1CCn2c1nc1ccccc12 | inactive: -3.63% |
| O=C(Cn1cnc2c(NCc3ccccc3)ncnc21)NCc1ccc2[nH]ccc2c1 | inactive: -1.78% |
| CCOC(=O)CSc1nc2ccccc2n1CC(=O)N(C(C)C)C(C)C | inactive: 15% |
| O=S(=O)(c1ccccc1)N1CCn2c(nc3ccccc32)C1 | inactive: -3.84% |
| Cn1c(=O)c2c(ncn2CC(=O)N2CCN(C(=O)c3ccco3)CC2)n(C)c1=O | inactive: -0.32% |
| O=C1NCN(c2ccccc2)C12CCNCC2 | inactive: 3.84% |
| COc1ccc(NS(=O)(=O)c2cc(NC(=O)Cn3cnc4c3c(=O)n(C)c(=O)n4C)ccc2C)cc1 | inactive: -6.35% |
| Cn1c(=O)c2c(ncn2CCNC2=NCCCCC2)n(C)c1=O | inactive: 12.3% |
| Cc1nc2cc(C(F)(F)F)ccc2n1CCNc1nc(-c2cc(Cl)c(N)c(Cl)c2)cs1 | inactive: 3.41% |
| CC(C)(C)C(=O)N1CCn2c1nc1ccccc12 | inactive: 7.97% |
| Cc1ccc(Cn2c(=O)c3c(nc4n3CCN4Cc3ccco3)n(C)c2=O)cc1 | inactive: 1.5% |
| CCOC(=O)C1CCCN(C(=O)Cn2cnc3c2c(=O)n(C)c(=O)n3C)C1 (configuration not stated) | inactive: -18% |
| Cn1c(=O)c2ncn(CC(=O)Nc3ccc(N4CCOCC4)cc3)c2n(C)c1=O | inactive: -29.4% |
| O=C(C1CCCN1S(=O)(=O)c1cccc2cccnc12)N1CCn2c1nc1ccccc12 (configuration not stated) | inactive: -13.4% |
| O=C(Cn1c(-c2ccco2)nc2ccccc21)N1CCCCC1 | inactive: 0.91% |
| S=C(Nc1ccccc1)N1CCn2c1nc1ccccc12 | inactive: -7.91% |
| c1ccc(CN2CCN(CCN3CCn4c3nc3ccccc34)CC2)cc1 | inactive: 0.18% |
| Cc1nc2ccccc2n1C1CC(=O)N(Cc2ccccc2)C1=O (configuration not stated) | inactive: -11.8% |
| CC(c1ccccc1)N1CCn2c(nc3cc(NS(C)(=O)=O)ccc32)C1 (configuration not stated) | inactive: -16.9% |
| COc1cc(/C=N/NC(=O)Cn2cnc3c2c(=O)n(C)c(=O)n3C)ccc1O | inactive: 4.77% |
| CCSc1nc2ccccc2n1CC(=O)N1CCOCC1 | inactive: -6.23% |
| O=C(NC1CCS(=O)(=O)C1)NP(=S)(Oc1ccccc1)Oc1ccccc1 (configuration not stated) | inactive: -1.82% |

| SMILES | inhibition |
| --- | --- |
| COc1cccc(NC(=O)[C@H](C)NC(=O)N2CCn3c2nc2ccccc23)c1 | inactive: -1.04% |
| CCNC(=S)/N=C(\N)N[N+](=O)[O-] | inactive: -12.3% |
| Cc1ccc(OCCNC(=O)Cn2cnc3c(=O)n(C)c(=O)n(C)c32)cc1C | inactive: 5.71% |
| CN(C)C(=O)Oc1noc2ccccc12 | inactive: -7.32% |
| O=c1c2cc([N+](=O)[O-])ccc2[nH]c2c([N+](=O)[O-])cc([N+](=O)[O-])cc12 | inactive: -2.13% |
| CN(C)CCn1cnc2ccccc21 | inactive: 0.48% |
| Cc1ccc(CNC(=O)Cn2cnc3c(NC(=O)OCc4ccccc4)ncnc32)o1 | inactive: -30.2% |
| CCOC(=O)C1=C(Cn2cnc3ccccc32)NC(=O)NC1c1ccc(Cl)cc1 (configuration not stated) | inactive: 9.95% |
| Cc1ccccc1OP(=O)(Nc1ccccn1)Oc1ccccc1C | inactive: -4.68% |
| CCc1cccc(C)c1N(C(=O)Cn1c(CO)nc2ccccc21)C(C)COC (configuration not stated) | inactive: 12.5% |
| CC(NC(=O)COC(=O)C(O)(c1ccccc1)c1ccccc1)c1ccccc1 (configuration not stated) | inactive: 22.6% |
| CC1CCCN(C(=O)Cn2cnc3c2c(=O)n(C)c(=O)n3C)C1 (configuration not stated) | inactive: 8.93% |
| Cn1c(=O)c2c(ncn2CC(=O)N2CCN(c3ccccc3)CC2)n(C)c1=O | inactive: -22.8% |
| C[C@H](O)[C@@H]1C(=O)N2CCc3ccc(-c4cccc(F)c4)cc3[C@@H]2C[C@@H]1N(C)C(=O)Nc1ccccc1 | inactive: -1.36% |
| COCCN1CCn2c(nc3cc(Nc4nnc(C)c5ccccc45)ccc32)C1 | inactive: -9.37% |
| COCCNC(=O)Cn1c(=O)n(C)c2ccccc21 | inactive: 3.05% |
| Clc1ccc(N2CCN(Cc3c[nH]c4ncccc34)CC2)cc1 | inactive: -1.37% |
| Cc1ccc2c(c1)C1CN(C)CCC1N2C(=S)NC(=O)c1ccc(Cl)cc1Cl (configuration not stated) | inactive: -2.76% |
| O=C(Cn1c(=O)n(CC(=O)NCc2ccccc2)c2ccccc21)NCc1ccccc1 | inactive: 2.08% |
| CC(/C=N\NC(=O)Cn1c(C)nc2ccccc21)=C\c1ccccc1 | inactive: -6.65% |
| CCCC(=O)Nc1ccc2c(c1)nc1n2CCN(CCOC)C1 | inactive: 6.25% |
| Cc1ccc(C)c(Cn2c(=O)c3c(nc4n3CCN4Cc3ccco3)n(C)c2=O)c1 | inactive: -1.23% |
| CCC(=O)N1C2C3N(C(=O)CC)C1C1N(C(=O)CC)C(C(N1C(=O)CC)N3C(=O)CC)N2C(=O)CC | inactive: -9.38% |

| SMILES | inhibition |
| --- | --- |
| O=C(OC1CN2CCC1CC2)c1ccccc1 (configuration not stated) | inactive: -16.1% |
| CC(O)CNc1nc2ccccc2n1CC(=O)NC12CC3CC(CC(C3)C1)C2 (configuration not stated) | inactive: -5.21% |
| CC1CN(CCn2cnc3c(N)ncnc32)CC(C)O1 (configuration not stated) | inactive: -1.15% |
| O=C(CCCCCNC(=O)N1CCn2c1nc1ccccc12)NCc1ccc(F)cc1 | inactive: -17.1% |
| Cc1ccc2c(c1)C1CN(C)CCC1N2C(=O)c1cccc(S(=O)(=O)N(C)C)c1 (configuration not stated) | inactive: -18.4% |
| O=C1CC(N2CCC(n3c(=O)[nH]c4ccccc43)CC2)C(=O)N1Cc1ccccc1 (configuration not stated) | inactive: -15.6% |
| CC(C)N(C(=O)Cn1c(SCC(=O)Nc2nccs2)nc2ccccc21)C(C)C | inactive: -25.8% |
| CSc1nc(N)nc2c1ncn2CC(=O)NCC(c1ccccc1)c1ccccc1 | inactive: -6.98% |
| Cc1ccc2c(c1)C1CN(C)CCC1N2S(=O)(=O)c1ccccc1 (configuration not stated) | inactive: 0.5% |
| CC(C)[C@H](NC(=O)N1CCn2c1nc1ccccc12)C(=O)NCCc1ccccc1 | inactive: -15.7% |
| CN1CCC(N(C)c2ccc(C(N)=O)cc2[N+](=O)[O-])CC1 | inactive: -11.6% |
| Cn1c(=O)c2c(ncn2CC(=O)Nc2ccccc2N2CCOCC2)n(C)c1=O | inactive: -2.17% |
| CCc1cccc(CC)c1N(COC)C(=O)Cn1c(C(C)O)nc2ccccc21 (configuration not stated) | inactive: 1.79% |
| FC(F)(F)c1nc2ccccc2n1CCNc1nc(CN2CCCCC2)cs1 | inactive: -6.79% |
| Cc1ccc(OP(=O)(Nc2ccccn2)Oc2ccc(C)cc2)cc1 | inactive: -10.1% |
| CC(=O)NC(SC(=S)N(CC(C)C)CC(C)C)C(Cl)(Cl)Cl (configuration not stated) | inactive: -0.67% |
| CC(C(=O)Nc1ccc2c(c1)OCO2)n1cnc2c1c(=O)n(C)c(=O)n2C (configuration not stated) | inactive: 11% |
| Cn1c(=O)c2c(ncn2CC(=O)NC2CCCCC2)n(C)c1=O | inactive: 18.1% |
| COC(=O)c1cc2c(s1)N=C(c1ccccc1)N(C)P2(=O)N1CCOCC1 (configuration not stated) | inactive: -8.89% |
| CC(C)NC(=O)Cn1cnc2c1c(=O)n(C)c(=O)n2C | inactive: -0.81% |
| Cc1sc2ncnc(NC3CCN(Cc4ccccc4)CC3)c2c1C | inactive: -29.3% |
| CC(/C=N/NC(=O)Cn1cnc2c1c(=O)n(C)c(=O)n2C)=C\c1ccco1 | inactive: 13% |
| CCOCN(C(=O)Cn1c(CO)nc2ccccc21)c1c(C)cccc1CC | inactive: -3.8% |

| SMILES | inhibition |
| --- | --- |
| Cc1nc2ccccc2n1CC(=O)NC1CCCC1 | inactive: -29.8% |
| O=C(Cn1c2[n+](c3ccc(C(F)(F)F)cc31)CCCCC2)Nc1ccccc1 | inactive: -4.19% |
| Cc1ccc(Cn2nnnc2CN2CCC(n3nnc4ccccc43)CC2)cc1 | inactive: -2.52% |
| O=c1oc2ccccc2c2c1ncn2CCN1CCOCC1 | inactive: -8.39% |
| COc1ccc(OC)c(C(=O)CSc2nc3ccccc3n2CC(=O)NC(C)(C)C)c1 | inactive: -35% |
| CCN(CC)CCn1c(NS(=O)(=O)c2ccc(Cl)cc2)nc2ccccc21 | inactive: -6.55% |
| C[C@H]1OP(=O)(Oc2ccccc2)[C@H](O)[C@H](O)[C@H]1N=[N+]=[N-] (some centres not stated) | inactive: -2.69% |
| Cc1cc2ncn(C3CC(=O)N(Cc4ccc(N5CCCC5=O)cc4)C3=O)c2cc1C (configuration not stated) | inactive: -4.51% |
| COc1ccccc1OCCSc1nc2ccccc2n1CC(N)=O | inactive: -10.9% |
| Cn1c(=O)c2c(ncn2CC(=O)N2CCOCC2)n(C)c1=O | inactive: -21.7% |
| Cn1c(=O)c2c(ncn2CC(=O)Nc2nc(-c3ccc(F)c(F)c3)cs2)n(C)c1=O | inactive: 6.56% |
| O=P(Nc1nc2ccccc2s1)(c1ccccc1)c1ccccc1 | inactive: -2.44% |
| N=c1n(CCN2CCCC2)c2ccccc2n1CC(O)c1ccco1 (configuration not stated) | inactive: -41.5% |
| Cn1c(=O)n(CC(=O)Nc2cccnc2)c2ccccc21 | inactive: -31.8% |
| CC(C)N(C(=O)Cn1c(SCC(=O)NC2CC2)nc2ccccc21)C(C)C | inactive: -3.24% |
| CCN(CC)CCn1c(NCc2ccccn2)nc2ccccc21 | inactive: 8.83% |
| CCN(CC)CCn1c(N)nc2ccccc21 | inactive: 1.7% |
| Cc1ccc(C(C(=O)NC2CCCCC2)N(Cc2ccco2)C(=O)Cn2cnc3ccccc32)cc1 (configuration not stated) | inactive: -33.6% |
| CC(O)CNc1nc2ccccc2n1CC(=O)NCC(F)(F)F (configuration not stated) | inactive: -0.41% |
| O=C(CSc1nc2ccccc2n1CC(=O)N1CCCC1)N1CCN(C(=O)c2ccco2)CC1 | inactive: 15% |
| C[C@H](NC(=O)N1CCn2c1nc1ccccc12)C(=O)NCCc1ccccc1 | inactive: -5.22% |
| CCC(=O)Nc1ccc(NC(=O)/C=C/c2ccc(Cl)cc2)cc1 | inactive: 13.5% |
| NC(=O)Cn1c2[n+](c3ccccc31)CC(O)CS2 (configuration not stated) | inactive: 3.73% |
